Experimental data reported in patent US20110230473A1, “Methods and Compositions for Treating Status Epilepticus and Seizures Causing Status Epilepticus” (published 2011).

Sequences of proteins named here, by UniProt entry; tags and fusion partners are left off. A change or cut given only in a name is not applied to a line headed by its entry.
UniProt P37136: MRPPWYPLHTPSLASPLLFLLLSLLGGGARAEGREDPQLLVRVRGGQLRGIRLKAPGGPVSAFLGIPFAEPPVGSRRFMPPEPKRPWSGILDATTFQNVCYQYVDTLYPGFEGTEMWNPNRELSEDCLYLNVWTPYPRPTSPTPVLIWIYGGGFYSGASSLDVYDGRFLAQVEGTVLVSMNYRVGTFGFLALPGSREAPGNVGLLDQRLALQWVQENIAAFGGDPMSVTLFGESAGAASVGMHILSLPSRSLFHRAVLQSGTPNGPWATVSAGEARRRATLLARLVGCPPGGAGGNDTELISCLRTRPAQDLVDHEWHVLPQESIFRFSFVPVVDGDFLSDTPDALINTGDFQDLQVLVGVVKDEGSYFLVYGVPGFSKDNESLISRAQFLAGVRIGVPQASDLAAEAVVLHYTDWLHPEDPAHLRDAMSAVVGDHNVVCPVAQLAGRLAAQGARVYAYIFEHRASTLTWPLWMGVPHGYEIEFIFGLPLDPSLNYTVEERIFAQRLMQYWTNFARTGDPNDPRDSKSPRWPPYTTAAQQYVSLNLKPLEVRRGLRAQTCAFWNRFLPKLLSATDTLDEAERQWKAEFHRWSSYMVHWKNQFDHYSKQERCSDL

Key:
[1] = test system: seizures induced by pilocarpine; settings: pretreatment, rat seizure models; cited from earlier work
[2] = test system: DFP toxicity in cell culture
[3] = test system: NMDA toxicity in cell culture
[4] = Pro-2-PAM conversion (biotransformation to 2-PAM)
AChE [5] = molecular target: AChE (Cavia porcellus, UniProt D3YE96); test: AChE activity assay, guinea pig blood, diaphragm and brain after DFP
brain AChE = settings: Rump et al. 1978; cited from earlier work
[6] = test system: DFP induced neuropathology; test: Guinea pig brain neuropathology (H&E, fluoro-jade) after DFP; settings: DFP then oxime, 24 hr post-exposure
[7] = Solubility and solution stability; settings: for solubility in acidic solution: slightly acidic solution, e.g. 0.9% sodium chloride, pH 5
DFP induced seizures = test: DFP guinea pig radiotelemetry model (standard military exposure paradigm)
paraoxon poisoning = settings: Boskovic et al. 1980; cited from earlier work
behavior effects of DFP = settings: Kenley et al. 1982; cited from earlier work
NMDA-induced seizures = test: NMDA SE rat model (radiotelemetry)
AChE [8] = molecular target: T1, AChE (Rattus norvegicus, UniProt P37136); test: Blood AChE activity of DFP-exposed rats; settings: pre- and post-exposure treatment
[9] = test system: DFP induced SE causing seizure; test: DFP rat radiotelemetry model
AChE [10] = molecular target: T1, AChE; test: Blood and brain AChE activity of NMDA-treated rats; settings: pre- and post-exposure treatment
AChE [11] = settings: cited from earlier work

For “9-amino-13-ethylidene-11-methyl-4-azatricyclo[7.3.1.0]trideca-3(8),6,11-trien-5-one [−HupA]”, the “seizures induced by pilocarpine” value [1] is listed as “does not”.
For [+]dimethylhuperzine, the “protective efficacy against DFP toxicity” value [2] was “protective efficacy” and the “protective efficacy against NMDA toxicity” value [3] was “protective efficacy”.
In the case of “N-methyl-1,6-dihydropyridine-2-carbaldoxime”, the “biotransformation to 2-PAM” value ([4]; NAD/P intracellular conversion) is reported as “incomplete after 30 min”, the “biotransformation to 2-PAM” value ([4]; physiological doses of riboflavin) is reported as “proceeds to completion within minutes” and the “AChE activities in blood and diaphragm” value (AChE [5]; 2-PAM vs Pro-2-PAM treated animals, 1.5 hr post treatment) is reported as “similar”. For the same substance, the “average increase in frontal cortex AChE activity vs DFP only treated animals” value (AChE [5]; 24 hr, therapy between 1 and 40 min post-DFP exposure, p≦0.05) was > 2 fold, the “brain AChE reactivation” value (AChE [5]; administered i.m. after OP exposure) was “resulted in brain AChE reactivation” and the “time post-OP exposure at which treatment still reactivated DFP-inhibited brain AChE” value (AChE [5]; frontal cortex, 24 hr) was “up to 40 min”. For the same substance, the “brain regional AChE activity, Pro-2-PAM vs 2-PAM treated animals” value (AChE [5]; six of eight brain regions, 1.5 hr after DFP exposure, p≦0.05) was “at least 2 fold”, the “reactivation of brain AChE” value (brain AChE) was “reactivated brain AChE in amounts greater than 2-PAM” and the “hippocampus pyramidal layer, fluoro-jade stain, 40×” value [6] was “lacked dead cells”. For the same substance, the “piriform cortex neurons, H&E stain, 40×” value [6] was “lack the signs of neuronal necrosis or degeneration”, the stability in solution [7] was “relatively unstable in solution for an extended period” and the “solubility in acidic solution” value [7] was “readily dissolved”. For the same substance, the water solubility ([7]; stored powder) was “readily water soluble powder”, the “DFP induced hypothermia, bradycardia and decreased activity” value (DFP induced seizures; 24 hr recording) was “abrogated DFP induced hypothermia and bradycardia and restored activity” and the “seizures, SE causing seizures and SE in DFP-exposed animals” value (DFP induced seizures; guinea pig, overall statement) was “significantly suppressed and then eliminated seizure activity”. For the same substance, the “seizure activity (EEG, 24 hr)” value (DFP induced seizures; oxime 13 mg/kg i.m. 1 min after DFP 8 mg/kg s.c., guinea pig) was “prevented seizure activity”, the “seizure activity (EEG, 24 hr)” value (DFP induced seizures; oxime injected 15 min after DFP, guinea pig) was “abrogated seizure activity” and the “effectiveness against paraoxon poisoning” value (paraoxon poisoning) was “less effective than 2-PAM”. For the same substance, the “reversal of the behavior effects of DFP” value (behavior effects of DFP) was “do not reverse the behavior effects of DFP”.
With “9-amino-13-ethylidene-11-methyl-4-azatricyclo[7.3.1.0]trideca-3(8),6,11-trien-5-one [+HupA]” the “protection against SE causing seizures and SE induced by NMDA” value (NMDA-induced seizures; 1, 2 and 3 mg/kg i.m. 30 min prior to 20 μg/kg NMDA i.c.v., rat) was “protected against SE causing seizures and SE”, the “survival of NMDA-administered animals” value (NMDA-induced seizures; +HupA treatment pre- and post-exposure to NMDA) was “increased survival” and the physical activity (NMDA-induced seizures; post-NMDA exposure treatment with 3 mg/kg) was “not affected”. For the same substance, the body temperature (NMDA-induced seizures; post-exposure treatment, 24 hr recording) was “normal baseline body temperature”, the physical activity (NMDA-induced seizures; pre-treatment with 3 mg/kg, then NMDA) was “normal physical activity” and the body temperature (NMDA-induced seizures; pre-treatment, 24 hr monitoring) was “remained within the normal temperature range”. For the same substance, the heart rate (NMDA-induced seizures; pre-treatment, then NMDA) was 300-500 bpm, the cardiovascular toxicity (NMDA-induced seizures; rat, in vivo) was “does not have any observable cardiovascular toxicity” and the “side-effects associated with NMDA ion-channel antagonists (behavior decrements)” value (NMDA-induced seizures; rat, in vivo) was “devoid of the side-effects such as behavior decrements”. For the same substance, the “blood AChE activity vs rats which received no treatment” value (AChE [8]) was “significant increase”, the survival ([9]; 3 mg/kg 10 min after DFP 4 mg/kg s.c., n=6) was 83% and the survival ([9]; 3 mg/kg i.m. 1 min after DFP 4 mg/kg s.c., n=8) was 87.5%. For the same substance, the survival ([9]; 3 mg/kg i.m. 5 min after DFP 4 mg/kg s.c., n=24) was 96%, the survival ([9]; 3 mg/kg i.m. 30 min before DFP 4 mg/kg s.c., 24 hr, n=6) was 100% and the “body temperature, average after recovery” value ([9]; 1 min post-treatment) was 35 °C. The “time to progression to SE after DFP injection” value ([9]; 1 min post-treatment) was “about 48 min”, the “time to signs of SE causing seizures after DFP injection” value ([9]; 1 min post-treatment) was “about 36 min” and the physical activity ([9]; 1 min post-treatment, 2 hr after DFP) was “significantly decreased”. The “heart rate (average)” value ([9]; 1 min post-treatment, remainder of experiment) was 425 bpm, the “body temperature after drop” value ([9]; 1 min post-treatment, three hr after DFP, dropped from 37° C.) was 33 °C and the “heart rate (average)” value ([9]; 1 min post-treatment, within 3 hr of DFP, increased from 400 bpm) was 450 bpm. The “duration of strong seizure activity” value ([9]; 5 min post-treatment) was 45 min, the “time to strong seizure activity after DFP exposure” value ([9]; 5 min post-treatment) was “about 8 min” and the “body temperature, low” value ([9]; 5 min post-treatment, 13 hr after DFP) was 31 °C. For the same substance, the physical activity ([9]; 5 min post-treatment, after quiet period 3.5-9 hr) was “resumed after 9 hr to normal levels”, the “body temperature, peak” value ([9]; 5 min post-treatment, end of 24 hr recording) was 35 °C and the “heart rate (average)” value ([9]; 5 min post-treatment, remainder of experiment) was 400 bpm. For the same substance, the “heart rate (average)” value ([9]; 5 min post-treatment, within 1 hr of DFP, increased from 450 bpm) was 500 bpm, the “duration of strong seizure activity” value ([9]; 10 min post-treatment) was 180 min and the “time to strong seizure activity after DFP exposure” value ([9]; 10 min post-treatment) was “about 8 min”. The “heart rate (average)” value ([9]; 10 min post-treatment, 2 hr later) was 300 bpm, the physical activity ([9]; 10 min post-treatment, 4 hr after DFP) was “drops significantly” and the “heart rate (average)” value ([9]; 10 min post-treatment, 8 hr later, remainder of experiment) was 250 bpm. For the same substance, the “body temperature, low” value ([9]; 10 min post-treatment, 17.5 hr after DFP) was 30.5 °C, the “heart rate (average)” value ([9]; 10 min post-treatment, within 1 hr of DFP, increased from 400 bpm) was 500 bpm and the “body temperature, low” value ([9]; 30 min pre-treatment, 3.5 hr after DFP) was 32 °C. For the same substance, the physical activity ([9]; 30 min pre-treatment, 24 hr) was “remained consistently active”, the “body temperature, average” value ([9]; 30 min pre-treatment, remainder of experiment) was 35 °C and the “heart rate (average)” value ([9]; 30 min pre-treatment, within 3.5 hr of DFP injection, dropped from 500 bpm) was 400 bpm. The “blood and brain AChE activities vs rats receiving NMDA alone” value (AChE [10]) was “no significant difference”, the “solubility in acidic solution” value [7] was “soluble in acidic solution” and the “seizures induced by pilocarpine” value [1] was “prevents seizures”. For the same substance, the “AChE binding activity, fold lower than −HupA” value (AChE [11]) was 100 to 1000 fold.
